# Binding of CDR-mutated scFvs to a peptide of the spike HR2 region

From the AlphaSeq antibody data of Li et al. 2023 (doi:10.1038/s41467-023-39022-2), copy in the FLAb collection.

The target is the same throughout: PDVDLGDISGINAS, from the HR2 region of SARS-CoV-2 spike.

Each scFv is VH, a 15-residue (Gly4Ser)3 linker, VL, as in the parent Ab-14, and differs from it in the CDRs of the light chain only.
VH: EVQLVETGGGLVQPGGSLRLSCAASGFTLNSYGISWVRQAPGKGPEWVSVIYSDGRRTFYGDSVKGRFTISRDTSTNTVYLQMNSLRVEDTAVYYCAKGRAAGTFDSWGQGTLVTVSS
VL: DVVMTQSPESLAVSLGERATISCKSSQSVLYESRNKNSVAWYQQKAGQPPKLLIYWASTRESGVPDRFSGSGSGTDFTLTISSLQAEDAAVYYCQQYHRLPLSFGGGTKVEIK

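This is the validation round: designs drawn from the data on random variants, tested in the same kind of assay. Group labels follow the data file (Ctrl: baseline library sampled from a position-specific scoring matrix, with some repeated check sequences; GP: Gaussian process model; GPLM: also part of the Gaussian process libraries; HC: hill climbing; Gen: genetic algorithm; Gibbs: Gibbs sampling; a sequence that several methods proposed may carry one label only). In AlphaSeq, yeast of one mating type display the scFv and yeast of the other type display the target. Pairs that bind mate more often; barcode pairs of the diploids are counted by sequencing. The ratio of observed to expected reads was calibrated, replicate by replicate, on BCL2-family standards whose Kd was known from biolayer interferometry. There are six technical replicates.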

Positions count from residue 1 of the parent VL; K24H puts H in place of K. Variants here have at most six changes. Numbers give log10(Kd / nM), so 0 is 1 nM and 3 is 1 µM. Smaller is tighter. An entry "ND" has no value in the source: the pair was not observed among the diploids in that replicate. This suggests poor binding but is not conclusive. In the paper, a design with two or fewer of six values counts as a poor binder. Three control strains display no target. For all light chain designs, 4% of the pairings with them gave a signal, with a median of 2.64 and one signal in twenty below 1.59, so weak values seen in few replicates may be background. Values of this round are not directly comparable with the first-round values of the same sequences.

changes	group	replicates, log10 nM
K24H Q27P L30D W56N S62E Q96D	GP_HC	0.28 0.18 0.12 0.06 -0.01 0.27
S26G S28G V29G W56G T59L	GP_HC	0.29 -0.05 0.04 0.11 -0.07 0.28
W56Q S58V H98G	Ctrl	ND ND ND ND ND ND
S25E V29W L30G W56G	GP_HC	0.35 0.27 -0.13 0.22 -0.14 0.54
Q27I V29E R34E W56E T59Q	GP_HC	0.97 0.92 0.35 0.36 0.60 0.94
Y31D K36F	Ctrl	1.71 1.16 1.50 1.78 0.79 0.74
S25L V29Y W56S	GP_Gen	0.27 0.27 0.20 0.16 0.18 0.35
S25H V29W L30I W56G	GP_HC	0.08 0.15 -0.08 -0.15 -0.22 -0.11
V29Y W56E S62Q	GP_HC	0.33 0.27 0.63 0.17 0.02 0.15
S25V R34G N35T W56N T59N	GP_HC	-0.07 -0.13 -0.17 -0.29 -0.42 -0.04
S28M L30E Y31F W56D	GP_HC	0.25 -0.14 0.04 -0.30 -0.23 -0.04
S25L S26R V29T W56F	GPLM_HC	0.69 0.54 0.66 0.30 0.34 0.99
Q27K R34I S62N	Ctrl	1.57 1.87 1.76 2.00 ND 1.52
S26Q S28G W56G T59Q	GP_HC	0.31 0.36 0.13 0.35 0.24 0.29
R34E S62D	Ctrl	1.49 1.68 1.28 1.13 1.28 1.25
S25W E32D N35W K36H W56A T59Q	Ctrl	1.10 1.12 1.20 0.76 0.95 1.22
R34F W56E	Ctrl	0.56 0.57 0.22 0.46 1.14 1.16
S25M H98F S103N	Ctrl	1.57 1.40 0.80 0.91 0.89 2.15
V29F K36D Y97T S103A	Ctrl	ND ND ND ND ND 1.31
S33D N37P W56D E61V	Ctrl	0.90 0.09 0.73 0.29 0.60 0.73
S25V V29E L30P W56E	GP_Gen	-0.52 -0.41 -0.69 -0.57 -0.46 -0.21
S26R R34N Q96L R99M P101E	Ctrl	ND ND ND ND ND ND
S25F S33G N35T W56N	GP_HC	0.54 0.32 0.34 0.05 -0.04 0.35
S25L V29S H98G L100V	Ctrl	ND ND ND ND ND ND
S38N W56A S58Q	Ctrl	0.98 1.19 0.98 1.39 1.18 1.14
S25M L30R K36G W56Q S62F Y97K	Ctrl	ND ND 1.59 1.26 1.90 ND
S25L V29Q W56D E61L	GP_Gen	-0.23 -0.40 -0.39 -0.54 -0.57 -0.21
Q27K Y31F W56E	GP_HC	1.53 1.41 1.23 1.25 1.40 1.35
S25L S26V Q27N V29T N35Q W56K	GP_HC	1.34 1.21 1.43 1.88 0.98 1.52
S25L N35M S38N W56N E61M	GP_Gen	0.14 -0.15 -0.04 -0.31 -0.20 0.17
S25I L30W R34K S38N W56Q	Ctrl	-0.06 -0.02 -0.23 -0.22 -0.09 0.20
S33D R34K K36V W56D T59Q E61C	GP_Gibbs	0.74 0.54 0.77 0.73 0.45 0.70
S25V S26Q V29E W56D	GP_Gen	-0.09 -0.28 -0.52 -0.55 -0.44 -0.17
K24M S25V K36N S62D H98M S103P	Ctrl	ND ND ND ND ND ND
S25V Q27F V29E W56E	GP_Gen	0.26 0.23 0.12 0.18 -0.06 0.10
Q27I V29Y R34E W56N T59Q	GP_HC	0.27 0.30 0.33 0.35 0.25 0.33
S25W L30D N37M W56N A57G	GP_Gibbs	0.07 0.09 -0.05 -0.14 0.01 0.10
N35V K36S S62V	Ctrl	ND ND ND ND ND 2.07

Top 5 of the variants detected in all replicates, tightest first:

| changes | group | replicates, log10 nM |
|---|---|---|
| S25V V29E L30P W56E | GP_Gen | -0.52 -0.41 -0.69 -0.57 -0.46 -0.21 |
| S25L V29Q W56D E61L | GP_Gen | -0.23 -0.40 -0.39 -0.54 -0.57 -0.21 |
| S25V S26Q V29E W56D | GP_Gen | -0.09 -0.28 -0.52 -0.55 -0.44 -0.17 |
| S25V R34G N35T W56N T59N | GP_HC | -0.07 -0.13 -0.17 -0.29 -0.42 -0.04 |
| S25I L30W R34K S38N W56Q | Ctrl | -0.06 -0.02 -0.23 -0.22 -0.09 0.20 |